# Screening results (PubChem BioAssay)
# Most compounds without a hit are left out; they make up all but 3.7% or so of the library.
# ClpP mod: qHTS Assay for Activators of ClpP | ATP-dependent Clp protease proteolytic subunit (Bacillus subtilis (strain 168)), P80244 | purified B. subtilis ClpP, FRET peptide cleavage, 20 min | Potency, µM (titrated, usually from 57.5 µM), without a hit: top-dose activity change, negative = active | actives 1.9% (n = 340,000) | AID 651965, 2013; active means well fitted falling curve with a large enough effect; inconclusive means small, poorly fitted or top-dose-only effect; inactive means no such curve, though single readings can be large or run the other way; further: potency means the concentration at half of the fitted maximal effect; the source files actives as falling curves though it sought activators and does not explain the sign; nearly all actives have a fitted effect of over 65% in size
#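 FRET quenching reversal measured ClpP activation: 10 microg/mL B. subtilis ClpP at pH 8 with the FRET-FV decapeptide, read at 430 nm after 320 nm excitation. The 20-min minus 0-min signal was scaled between DMSO/no-enzyme wells and ADEP (5.8 microM final).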
# A549 tox-1: kills or reduces viability of A549 cells in Nrf2 counter-screen; A549 ARE-Fluc cells, CellTiter-Fluor viability, 18-24 h; Potency, µM (top dose mostly 46 µM), inactives show at the top dose activity change, negative = cytotoxicity, most hits filed as inhibitors; actives 0.16% (n = 390,000); AID 504648; further: potency means the concentration at half of the fitted maximal effect; on the % scale 0 is the no-effect control and ±100 the full control effect
#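 A549 ARE_Fluc cells in 5% FBS OPTI-MEM were exposed to compounds in concentration-response for 18-24 h at 37 deg C. Viability was read by CellTiter-Fluor fluorescence (Ex 405/Em 525) after 30 min, before the luciferase read.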
# Nrf2 activator: activators of Nrf2 (ARE) signaling; AREc32 ARE-luciferase reporter (MCF7-derived line), luminescence, 24 h; Potency, µM (titrated, usually from 46.1 µM), for inactives: at the highest dose activation, hits mostly activators; actives 0.31% (n = 410,000); AID 624171; further: potency means the concentration at half of the fitted maximal effect; % of control where 0% means no effect; nearly all actives have a fitted effect of over 65% in size
#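 AREc32 cells carrying an ARE-driven firefly luciferase, 1000 cells/well in OPTI-MEM with 5% FBS, dosed after overnight attachment and incubated 24 hr at 37 deg C. Steady-Glo luminescence read after 30 min at RT.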
# Nrf2 block: Nrf2 pathway inhibition | AID 504444 | actives 2.1% (n = 360,000) | A549 ARE-Fluc reporter, luciferase luminescence, 18-24 h | Potency, µM (titrated, usually from 46 µM), for inactives: top-dose activity change, negative = inhibition, usual class: inhibitors; further: potency means the concentration at half of the fitted maximal effect; on the % scale 0 is the no-effect control and ±100 the full control effect; nearly all actives have a fitted effect of over 60% in size
#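 Nrf2 activity is the BugLite luminescence, read 15 min after reagent at room temperature, following CellTiter-Fluor cytotoxicity readout (30 min, 37C). Compound titrations were applied for 18-24 h to 5000 A549 ARE_Fluc cells/well in 5% FBS OPTI-MEM.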
# TCR act: T cell receptor activation; AID 504894; 330,000 tested, under 10 active; primary human leukocytes, anti-CD3, IL-2 HTRF, 48 h; Potency, µM (highest dose often 9.22 µM), inactives show top-dose activation of IL-2 secretion, usual class: activators; further: % of control where 0% means no effect
#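 TCR engagement came from a-CD3 beads alone, with compounds added to primary human leukocytes for 48 hr. Secreted IL-2 bridged europium cryptate- and d2-labelled anti-IL-2 antibodies, giving FRET emission at 665nm after 320nm excitation.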
# miR-21 reporter: raises the signal of a miR-21 reporter | AID 2288 | 340,000 tested, under 10 active | Potency, µM (series often up to 38.3 µM), without a hit: at the highest dose reporter change, positive = more light | HeLa miR-21 FLuc reporter, luciferase, 48 h; active = well fitted rising curve with a large enough effect; inconclusive = small, poorly fitted or top-dose-only effect; inactive = no such curve, though single readings can be large or run the other way;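 further: % of control where 0% means no effect; miR-21 action dims this reporter so a rising signal means less miR-21 action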
#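 Using DMEM plus 10% FBS, HeLa miR-21-FLuc cells are incubated with test compounds (final up to about 40uM) for 48 hours; firefly luciferase signal is then imaged following reagent-mediated lysis.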
# FLuc enzyme inh: blocks purified firefly luciferase in Nrf2 counterscreen. shares compounds with Nrf2 block. purified firefly luciferase, luminescence inhibition. Potency, µM (series often up to 57.5 µM), inactives show at the highest dose activity change, negative = inhibition, usual class: inhibitors. actives 4% (n = 1,400). AID 720522; further: potency means the concentration at half of the fitted maximal effect; on the % scale 0 is the no-effect control and ±100 the full control effect; nearly all actives have a fitted effect of over 65% in size
# A549 tox-2: toxic to A549 ARE-Fluc cells in Nrf2 counterscreen. shares compounds with Nrf2 block. A549 ARE-Fluc cells, cytotoxicity counterscreen. Potency, µM (highest dose often 46.1 µM), for the others: at the top dose activity change, negative = cytotoxicity, usual class: inhibitors. actives 2% (n = 1,400). AID 720523;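 further: potency means the concentration at half of the fitted maximal effect; cells exposed to compounds for 18 to 24 hours; on the % scale 0 is the no-effect control and ±100 the full control effect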
# Nrf2 ARE inh: Nrf2 inhibition confirmed, A549 ARE-luciferase; shares compounds with Nrf2 block; A549 ARE-firefly luciferase reporter, luminescence; Potency, µM (top dose mostly 46.1 µM), inactives show top-dose activity change, negative = inhibition, actives largely listed as inhibitors; actives 74% (n = 1,400); further: potency means the concentration at half of the fitted maximal effect; on the % scale 0 is the no-effect control and ±100 the full control effect; nearly all actives have a fitted effect of over 65% in size
# Active calls of the source: *; ? = inconclusive; . = no result; [ ] = dose if it differs, or a comment. Unless noted, the call rests on the fitted dose curve; in most records, active means well fitted curve in the direction sought with a large enough effect; inconclusive means small, poorly fitted or top-dose-only effect, or another doubt; inactive means no such curve, though single readings can be large; an effect the other way counts as inactive or inconclusive.
compound | ClpP mod | A549 tox-1 | Nrf2 activator | Nrf2 block | TCR act | miR-21 reporter | FLuc enzyme inh | A549 tox-2 | Nrf2 ARE inh
CC1(C)CC2CC(C)(CN2S(=O)(=O)c2ccc(C(=O)Nc3cccc(S(=O)(=O)N4CCOCC4)c3)cc2)C1 (centres undefined) | ? | -1.6% | -0.3% | 2.31µM* | -5.2%[46.1 µM] | 29.2% | -1.4% | -4.3% | 2.06µM*
Cc1ccc(S(=O)(=O)CC2CSc3nc4ccccc4n32)cc1 (centres undefined) | 0.7% | 0.4% | -0.6% | 0.731µM* | -5.0% | 20.9% | -0.4% | -1.1% | 1.3µM*
Cc1ccc(S(=O)(=O)CC2CSc3nc(N)cc(=O)n32)cc1 (centres undefined) | 1.2% | -12.7% | -0.5% | -11.0% | -4.5% | -6.3% | . | . | .
O=C(O)CCSc1ncnc2sc(-c3ccccc3)cc12 | . | -14.4% | -2.4% | 2.06µM* | -7.5% | 28.8% | 9.53µM* | -3.4% | 6.51µM*
Cc1ccc(C(=O)OCC(=O)NC(=O)c2cccn2C)cc1 | -13.4% | 17.1% | -2.6% | 1.3µM* | -1.4% | -1.6% | -14.6% | 0.1% | 1.64µM*
CCOc1ccc2c(c1)c(=O)c(S(=O)(=O)c1ccccc1)cn2CC(=O)Nc1ccccc1OC | -26.0% | -0.8% | 0.1% | -8.0% | . | -1.1% | . | . | .
CC(C)(C)c1ccc(-c2noc(CCC(N)=O)n2)cc1 | -0.4% | -7.2% | -2.1% | 0.13µM* | 2.9% | ? | 3.01µM* | -1.5% | 0.164µM*
CC(Nc1ncnc2sccc12)c1ccccc1 (centres undefined) | -1.9% | -7.1% | -0.4% | 1.64µM* | -0.4% | 23.5% | 0.3% | 0.4% | 1.46µM*
CN(C)c1ncnc2c1ncn2[C@H]1CN(Cc2cccs2)C[C@@H](CO)O1 | -1.0% | . | -0.2% | . | . | . | . | . | .
CCOC(=O)N1CCC(NC(=O)c2ccc3c(c2)N(Cc2ccc(Cl)cc2)C(=O)c2ccccc2S3=O)CC1 (centres undefined) | -2.2% | -16.6% | 1.0% | -2.2% | . | 23.7% | . | . | .
COc1ccccc1N1CCN(C(=O)C2CCCN(S(=O)(=O)c3ccc4c(c3)CCCN4C(C)=O)C2)CC1 (centres undefined) | 0.9% | -10.7% | 0.1% | 9.2µM* | -4.2% | ? | -0.7% | -0.6% | 9.2µM*
COc1ccccc1N1CCN(C(=O)C2CCCN(S(=O)(=O)c3ccc(C)cc3)C2)CC1 (centres undefined) | -0.3% | 4.3% | 0.1% | ? | -10.9% | . | . | . | .
COc1nnc(-c2ccc(N3CCCCC3)c(NC(=O)c3ccccc3Cl)c2)c2ccccc12 | -12.1% | -29.6% | 0.5% | 6.51µM* | . | ? | 1.8% | -28.9% | 6.51µM*
Cc1noc(C)c1CSCC(=O)Nc1nc(-c2ccc(F)c(F)c2)cs1 | . | ? | -1.9% | 9.2µM* | -0.6% | . | -12.5% | -18.2% | 13µM*
Cc1csc(NC(=O)CSCc2c(C)noc2C)n1 | . | 1.5% | -0.4% | 1.1% | -3.5% | . | . | . | .
Cc1nnc(NC(=O)c2ccc(S(=O)(=O)N3CCCCCC3)cc2)o1 | 1.3% | -2.5% | 0.1% | -23.3% | 5.4% | -1.4% | . | . | .
Cc1cc(C)c2nc(NNC(=O)c3ccc(S(=O)(=O)N4CCCC(C)C4)cc3)sc2c1 (centres undefined) | -1.9% | ? | -1.2% | 4.11µM* | -2.2% | 12.7% | -0.7% | -19.1% | 6.51µM*
CC1CCCN(S(=O)(=O)c2ccc(C(=O)Nc3nnc(C4CC4)o3)cc2)C1 (centres undefined) | 1.6% | ? | -0.5% | 5.8µM* | -3.4% | 28.0% | -1.2% | ? | 9.2µM*
CN(C)S(=O)(=O)c1ccc(N2CCN(S(=O)(=O)c3ccc(F)cc3)CC2)c(Cl)c1 | -0.3% | -17.1% | 2.4% | 5.8µM* | 1.5% | ? | -1.0% | -17.7% | ?
N=c1ccn2c(n1)O[C@H]1[C@H](O)[C@@H](CO)O[C@H]12 | 0.3% | -8.9% | -0.7% | 0.184µM* | 6.6% | 6.7% | 2.2% | -9.4% | 0.092µM*

# Continued.
compound | ClpP mod | A549 tox-1 | Nrf2 activator | Nrf2 block | TCR act | miR-21 reporter | FLuc enzyme inh | A549 tox-2 | Nrf2 ARE inh
Cc1nc2ccccc2n1-c1nc(-c2ccco2)cc(C(F)(F)F)n1 | -5.4% | ? | 8.3% | 4.61µM* | -2.9% | 0.9% | -11.9% | ? | 5.8µM*
Cc1ccc(NC(=O)CSc2nn(-c3ccccc3)c(=S)s2)cc1S(=O)(=O)N(C)C | -3.0% | ? | 2.1% | 5.8µM* | -5.1%[46.1 µM] | 26.8% | -14.8% | -17.0% | 7.31µM*
CCOC(=O)C1CCN(S(=O)(=O)c2ccc3c(c2)CC(=O)N3C)CC1 | -5.4% | 1.6% | 2.1% | 4.5% | -8.1% | 2.6% | . | . | .
C/C(=N\Nc1ccc2nncn2n1)c1ccccn1 | -0.4% | -27.3% | 0.0% | 3.66µM* | -0.6% | 14.7% | -17.4% | -9.3% | 2.59µM*
CCCNc1nc(N2CCCC2)nc(N2CCCC2)n1 | . | -4.1% | 2.8% | -19.2% | -0.6% | 6.7% | . | . | .
N#Cc1nc(N2CCCCC2)nc(N2CCCCC2)n1 | -3.5% | -3.5% | . | 2.06µM* | . | . | -13.4% | -23.3% | 5.17µM*
CCNc1nc(C#N)nc(N2CCCCC2)n1 | ? | -10.0% | . | 4.61µM* | . | . | -9.6% | -23.4% | 7.31µM*
CCN1C[C@@H]2[C@@H]3C(=O)N(C)C(=O)[C@@H]3[C@](CC)(C(=O)OC)N2C1=NCc1ccccc1 | -1.3% | -6.0% | -1.3% | 9.3% | 4.3% | . | . | . | .
C1=C/C(=C2/C=Cc3ccccc32)c2ccccc2N1 | 1.4% | . | . | . | . | . | -15.5% | ? | 6.51µM*
COc1ccc(S(=O)(=O)NC(=O)C2(C)CCN2C(=O)Cc2cc(F)ccc2F)cc1 (centres undefined) | 0.4% | . | 0.1% | . | . | . | . | . | .
CC(Oc1ccc(Br)cc1)C(=O)O/N=C(\N)c1ccncc1 (centres undefined) | 1.6% | 1.9% | 3.3% | ? | 9.1% | 0.1% | . | . | .
CC1(C)CC(N2CCN(c3ccccc3)CC2)=CC(=[N+]2CCCC2)C1 | -0.1% | -5.5% | -0.4% | ? | 8.8% | ? | 2.1% | -13.5% | 4.61µM*
